From article PMC6220267

Protein sequences, listed by entry. Tags and fused reporters are not part of them. Residues count along the entry.
UniProt Q9NZC2, 19-174: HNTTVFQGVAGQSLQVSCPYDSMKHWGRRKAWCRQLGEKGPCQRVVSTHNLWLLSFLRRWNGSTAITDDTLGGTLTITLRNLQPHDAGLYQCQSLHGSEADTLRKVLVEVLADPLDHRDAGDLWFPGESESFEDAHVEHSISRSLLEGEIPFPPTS

Key:
[1] = target: T1, soluble mouse Trem1‐Fc (soluble ectodomain) (mouse) (UniProt Q9JKE2); assay: BLI; settings: chains peptide; remark: other sources report otherwise
T1 sequence: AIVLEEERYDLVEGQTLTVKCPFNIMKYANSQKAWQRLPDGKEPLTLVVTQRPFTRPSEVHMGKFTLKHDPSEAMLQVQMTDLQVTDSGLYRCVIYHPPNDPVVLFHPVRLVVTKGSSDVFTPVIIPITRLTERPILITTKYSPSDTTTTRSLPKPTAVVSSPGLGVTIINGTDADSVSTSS

[2] = target: soluble TREM2‐Fc (soluble ectodomain of human TREM2 fused to the Fc domain of human IgG4, V5 epitope) (human) (UniProt Q9NZC2); assay: BLI; optimized assay: Protein A sensors loaded to near-saturation with soluble TREM‐Fc‐V5 proteins in PBS; ligand in serial dilution (five concentrations); dissociation in PBS; 1:1 interaction model

Kd [1] [pM]	koff [1] [s⁻¹]	Kd [2] [pM]	koff [2] [s⁻¹]	Substance
1	1e-07			Aβ42 oligomers (soluble) (from UniProt P05067 672-713)
		< 1	1e-07	Aβ42 oligomers (soluble) (from UniProt P05067 672-713) (peptide)
